Assay results from ChEMBL document CHEMBL1155260, “Synthesis and investigations of double-pharmacophore ligands for treatment of chronic and neuropathic pain” (2009).
Activity calls are given as the source filed them. The calls are words filed in the database; no cut-off is given here.

The chains behind the UniProt entries cited, without tags or fusion partners.
UniProt P32300, whole entry, looked up: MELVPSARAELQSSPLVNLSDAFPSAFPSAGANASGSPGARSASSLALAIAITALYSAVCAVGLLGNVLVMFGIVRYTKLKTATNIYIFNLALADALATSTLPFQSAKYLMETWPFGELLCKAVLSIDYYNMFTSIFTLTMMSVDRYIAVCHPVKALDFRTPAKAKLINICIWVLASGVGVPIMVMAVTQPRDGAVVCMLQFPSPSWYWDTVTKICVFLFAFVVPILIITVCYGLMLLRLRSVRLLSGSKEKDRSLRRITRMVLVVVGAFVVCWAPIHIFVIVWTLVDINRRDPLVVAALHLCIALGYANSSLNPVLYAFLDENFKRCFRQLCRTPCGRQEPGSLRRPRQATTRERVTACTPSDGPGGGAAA

Assays:
[1] = test system: Rattus norvegicus; test: Antinociceptive activity in intrathecally dosed Sprague-Dawley rat of L5 and L6 spinal nerve ligated chronic neuropathic pain model assessed as inhibition of injury related abnormal pain
[2] = biological target: Delta-type opioid receptor (Mus musculus) (UniProt P32300); test: Antagonist activity at delta opioid receptor in ICR mouse vas deferens assessed as reversal of DPDPE-induced inhibition of electrically-stimulated muscle contraction at 1 uM

Compound | Activity [1] | Activity [2]
COc1ccc2c(c1)c(CC(=O)O)c(C)n2C1CCN(C)CC1 | inactive | inactive
Cc1c(CC(=O)O)c2ccccc2n1C1CCN(C)CC1 | inactive | inactive
COc1ccc2c(c1)c(CC(=O)O)c(C)n2C1CCN(CCc2ccccc2)CC1 | inactive | inactive
Cc1c(CC(=O)O)c2ccccc2n1C1CCN(CCc2ccccc2)CC1 | inactive | inactive
